Data on 2 compounds can be found in patent publication US20100204182A1, “ECTONUCLEOTIDASE INHIBITORS” (RHEINISCHE FRIEDRICH-WILHELMS-UNIVERSITAT BONN, priority 2006, published 2010).

By UniProt entry, the sequences of proteins in these tests, tags left out.
UniProt Q93086, whole entry, species assumed: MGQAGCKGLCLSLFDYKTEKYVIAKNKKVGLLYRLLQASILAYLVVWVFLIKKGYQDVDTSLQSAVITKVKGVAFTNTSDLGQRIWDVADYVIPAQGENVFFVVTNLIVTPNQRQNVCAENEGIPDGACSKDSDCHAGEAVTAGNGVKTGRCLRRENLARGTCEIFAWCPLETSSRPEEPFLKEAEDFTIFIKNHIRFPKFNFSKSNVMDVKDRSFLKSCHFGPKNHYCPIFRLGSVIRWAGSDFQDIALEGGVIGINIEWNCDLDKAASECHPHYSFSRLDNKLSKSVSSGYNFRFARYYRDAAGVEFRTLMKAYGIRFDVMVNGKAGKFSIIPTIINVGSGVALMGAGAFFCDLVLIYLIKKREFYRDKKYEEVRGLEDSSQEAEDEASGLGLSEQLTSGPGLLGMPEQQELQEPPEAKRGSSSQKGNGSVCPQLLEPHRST

For one experiment, the target named is T1, P2X2 (Homo sapiens, UniProt Q9UBL9).
T1 sequence (Q9UBL9 1-471): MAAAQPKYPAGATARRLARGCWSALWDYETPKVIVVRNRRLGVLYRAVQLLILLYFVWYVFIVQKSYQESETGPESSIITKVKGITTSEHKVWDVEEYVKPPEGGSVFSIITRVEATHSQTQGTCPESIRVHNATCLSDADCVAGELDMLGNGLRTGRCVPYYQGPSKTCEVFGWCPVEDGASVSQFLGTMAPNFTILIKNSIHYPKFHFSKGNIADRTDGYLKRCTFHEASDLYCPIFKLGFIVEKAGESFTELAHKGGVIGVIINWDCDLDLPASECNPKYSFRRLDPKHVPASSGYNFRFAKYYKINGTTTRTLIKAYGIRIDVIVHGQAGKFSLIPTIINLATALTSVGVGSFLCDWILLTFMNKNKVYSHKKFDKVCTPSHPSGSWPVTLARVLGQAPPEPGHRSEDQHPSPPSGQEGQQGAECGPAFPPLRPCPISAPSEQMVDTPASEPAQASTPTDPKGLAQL
To be noted: standard inhibitors; reference mark 15; read-out: P2X2 Ki ± SEM; cited from earlier work.

For another experiment, the target named is P2X5 (Homo sapiens, UniProt Q93086). The following applies: standard inhibitors; reference mark 15; read-out: P2X5 Ki ± SEM; cited from earlier work.
In another experiment the target is T2, P2X3 (Homo sapiens, UniProt P56373).
T2 sequence (P56373 1-397): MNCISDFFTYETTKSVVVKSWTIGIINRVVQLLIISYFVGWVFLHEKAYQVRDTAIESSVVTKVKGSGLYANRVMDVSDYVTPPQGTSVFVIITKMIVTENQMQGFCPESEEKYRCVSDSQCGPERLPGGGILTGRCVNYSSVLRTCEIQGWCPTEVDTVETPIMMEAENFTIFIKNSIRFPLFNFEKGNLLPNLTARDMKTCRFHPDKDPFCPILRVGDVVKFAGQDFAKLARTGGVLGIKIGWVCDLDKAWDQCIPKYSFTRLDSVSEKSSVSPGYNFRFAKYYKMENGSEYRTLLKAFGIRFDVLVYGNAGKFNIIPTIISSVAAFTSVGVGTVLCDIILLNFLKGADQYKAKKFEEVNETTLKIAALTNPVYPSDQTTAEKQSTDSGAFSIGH
The following applies: standard inhibitors; reference mark 15; read-out: P2X3 Ki ± SEM; cited from earlier work.

The target in another experiment is T3, rat NTPDase2 (Rattus norvegicus, UniProt O35795).
T3 sequence (O35795 1-495): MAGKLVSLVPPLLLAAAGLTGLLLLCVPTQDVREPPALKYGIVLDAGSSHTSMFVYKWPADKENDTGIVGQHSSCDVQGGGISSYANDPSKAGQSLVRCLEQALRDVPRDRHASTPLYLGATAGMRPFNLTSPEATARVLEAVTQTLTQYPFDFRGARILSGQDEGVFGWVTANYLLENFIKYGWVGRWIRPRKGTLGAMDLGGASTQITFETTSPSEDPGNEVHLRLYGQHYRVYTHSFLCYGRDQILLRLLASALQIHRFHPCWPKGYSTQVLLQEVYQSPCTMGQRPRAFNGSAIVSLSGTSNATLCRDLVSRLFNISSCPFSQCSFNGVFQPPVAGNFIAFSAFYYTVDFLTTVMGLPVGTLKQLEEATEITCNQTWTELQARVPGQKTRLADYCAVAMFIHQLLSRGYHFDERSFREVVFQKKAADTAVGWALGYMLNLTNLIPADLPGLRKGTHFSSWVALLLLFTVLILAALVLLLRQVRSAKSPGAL
The experiment is described as follows: Rat NTPDase2 inhibition, in-capillary electrophoresis method (standard compounds). The class given is biochemical. To be noted: read-out: NTPDase2 Ki ± SEM.

Molecules are shown by their SMILES.

For orientation: Ki means the dissociation constant of the complex between target and ligand, obtained from inhibition or displacement. Turning to `Cc1nc(N=Nc2ccc(S(=O)(=O)O)cc2S(=O)(=O)O)c(COP(=O)(O)O)c(C=O)c1O` [PPADS, pyridoxalphosphate-6-azophenyl-2′,4′-disulfonic acid], the results for the Ki at P2X2, at P2X5 and at P2X3 were 1600 nM, 200 nM and 200 nM, respectively.
With `Nc1c(S(=O)(=O)O)cc(Nc2ccc(Nc3nc(Cl)nc(Nc4cccc(S(=O)(=O)O)c4)n3)c(S(=O)(=O)O)c2)c2c1C(=O)c1ccccc1C2=O` [RB2, reactive blue 2], the Ki at rat NTPDase2 was determined as 24200 ± 60 nM.
